Laboratory results taken from publication PMC8946146, “A Series of PSMA-Targeted Near-Infrared Fluorescent Imaging Agents” (Biomolecules, 2022).

Test system: PSMA^+ PC3 PIP and PSMA^- PC3 flu tumors
Details: 1 nmol intravenously, 24 h post-injection

CC1(C)C(/C=C/C2=C(Oc3ccc(S(=O)(=O)O)cc3)C(=C/C=C3/N(CCCCS(=O)(=O)O)c4ccc(S(=O)(=O)O)cc4C3(C)C)/CCC2)=[N+](CCCCCC(=O)NCCCCC(NC(=O)CCCCCCC(=O)NCCCC[C@H](NC(=O)N[C@@H](CCC(=O)O)C(=O)O)C(=O)O)C(=O)O)c2ccc(S(=O)(=O)[O-])cc21 (stereo partly shown) [YC-27]
PSMA+ PIP tumor uptake (fluorescence): comparable
